Measurements as given in patent publication US11903945B2, “Methods of treating antipsychotic-induced weight gain with miricorilant” (Corcept Therapeutics Incorporated, priority 2019, dated 2024).
Where two headings read alike, the source gives them in different places.

Columns and labels:
[1] = adults treated with olanzapine; prescribing information; cited from earlier work
[2] = female rats; for Group mean body weight at Day 34: vehicle-only Group 1: 270 g
Experimental: On day 35, the rodents were randomized to 4 different interventions and remained on study until day 57. The four intervention groups were: OLZ+vehicle daily by oral gavage; OLZ+2 mg/kg/day miricorilant once daily; OLZ+1 mg/kg miricorilant twice daily; and OLZ+10 mg/kg/day miricorilant once daily. A fifth group, a vehicle-only group (n=12), was included as a control for the entirety of the 57 days.
Starting at week 6, either miricorilant (MIRI, 3 dosing regimens) or vehicle 2 was administered orally. […] The vehicle-only group was included as a control for the 8-week duration of the study. Efficacy was assessed based on body weight, food consumption, mortality, and clinical observations.
The articles were stored refrigerated between dosing.
Body weights were measured and recorded three times weekly during the acclimation period, every other day beginning on Day −1, and prior to termination on Day 57. Food consumption was measured and recorded daily beginning on Day −14. Body weights and food consumption were measured within 2 hours of the initial time on Day −1. Any changes in bodyweight greater than 15 grams (g) and changes in food consumption greater than 5 g were verified. Food jars were weighed twice for precision during food jar changes.

[3] = Experimental: The dose level tested in our Phase 1b trial was 600 mg/day.
A 2-week, single-center, double-blind, randomized, placebo-controlled study was conducted in healthy male subjects age 18-55 years with BMI between 18-25 kg/m^2 and a stable body weight (defined as the Day 1 pre-dose body weight to be within ±2.0% of screening body weight). […] Food was freely available to all subjects during the study. The difference in mean change in absolute body weight after administration of OLZ+PBO compared to OLZ+MIRI was evaluated using a repeated measures model with imputation applied to missing values.
(HOMA2-IR values were calculated from fasted glucose and insulin levels using the HOMA (HOMA2 Model) Calculator® application programming interface for SAS (Oxford University 2013, available at the website www.dtu.ox.ac.uk/homacalculator)).

[4] = patients, cited from earlier work; for Mean body weight increase over a period of ten weeks: Allison et al., Am J. Psychiatry 1999

Row | Structure (SMILES) | Triglyceride level increase after 12 weeks [1] [mg/dL] | Triglyceride level increase over 48 weeks [1] [mg/dL] | Group mean body weight at Day 34 ([2]; Group 2, olanzapine 2.4 mg/kg/day oral (BID) Days 1-34) [g] | Group mean body weight at Day 34 ([2]; Group 3, olanzapine 2.4 mg/kg/day oral (BID) Days 1-34, before miricorilant) [g] | Group mean body weight at Day 34 ([2]; Group 4, olanzapine 2.4 mg/kg/day oral (BID) Days 1-34, before miricorilant) [g] | Group mean body weight at Day 34 ([2]; Group 5, olanzapine 2.4 mg/kg/day oral (BID) Days 1-34, before miricorilant) [g] | Body weight gains attributed to Olanzapine at Day 34 ([2]; Groups 2 to 5 vs vehicle-only control Group 1 (270 g)) [%] | Group mean body weight at Day 57 ([2]; olanzapine control Group 2 (OLZ + vehicle 2)) [g] | Mean increase in food consumption across the groups treated with olanzapine ([2]; weight-induction phase (weeks 1-5)) [%] | Mean body weight of olanzapine treated groups by day 34 ([2]; vs 270 g vehicle only control, p<0.05) [g] | Insulin resistance (HOMA2-IR) increase from baseline, percent ([3]; healthy male subjects, day not given, listed as miricorilant = olanzapine+miricorilant, listed as olanzapine = olanzapine+placebo) [%] | ALT increase from baseline, percent, day 7 ([3]; human, in vivo) [%] | ALT increase from baseline, percent, day 12 ([3]; human, in vivo) [%] | AST increase from baseline, percent, day 7 ([3]; human, in vivo) [%] | AST increase from baseline, percent, day 12 ([3]; human, in vivo) [%] | Average weight gain in a year ([4]; Allison et al. 2001) | Mean body weight increase over a period of ten weeks [4] [kg] | Weight gained after 10 weeks of treatment ([4]; Allison et al. 2001)
1 | Cc1cc2c(s1)Nc1ccccc1N=C2N1CCN(C)CC1 [olanzapine, reference compound] | 20.8 | 18.7 | 298 | 296 | 292 | 292 | 8 to 10 | 309 | 13 | 294.5 | 150 | 225 | 724 | 137 | 338 | about 12 kg | 4.15 | –
2 | Cc1nc2n(c(=O)c1CCN1CCC(c3noc4cc(F)ccc34)CC1)CCCC2 [risperidone] | – | – | – | – | – | – | – | – | – | – | – | – | – | – | – | – | 2.10 | about 2.5 kg
